Only some compounds are listed: those with a hit (about 2.1% of all), similar ones and a draw of the others.
miR122 inh: blocks miR-122 activity in Huh7 sensor cells | 340,000 tested, 0.3% active | Huh7 miR-122 Renilla luciferase sensor, 48 h; neutral wells = 0, positive control = 100 | activation (reporter increase), % at 12.5 µM;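 active = mean replicate activation score at least 90 and every replicate individually at or above 90; inconclusive = only one of the two criteria met; inactive = neither criterion met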;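 note: higher luciferase means less miR-122 activity so hits act as miR-122 inhibitors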
Wnt bcat act: activates Wnt/beta-catenin signaling in a reporter cell assay; activation, % at 9.35 µM; 300,000 tested, 1.2% active; activator, plate reader; in the data active = activation above about 30%, passing the limit was not always enough; inconclusive = no clear call, values can overlap the other calls
TRPM1 prom inh: MITF TRPM1 promoter inhibition in SK-MEL-5 cells; SK-MEL-5 TRPM1 promoter luciferase, 24 h; inhibition, % at 12.5 µM; 330,000 tested, 0.83% active; AID 488899;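 active = mean inhibition across replicates of 60% or more, whatever share of single replicates reaches that level; inconclusive = some that reach 60%, reason not given; inactive = mean inhibition across replicates below 60%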
UUG fidelity: alters start codon recognition fidelity in yeast; S. cerevisiae UUG-firefly luciferase reporter, luminescence/redox ratio; activity score, % at 18.7 µM; actives 0.13% (n = 350,000); AID 602363;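 active = replicate mean at a twofold rise or more, about +100% in these data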;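 also: firefly luciferase made from a UUG start codon reports start codon fidelity; reporter light over untreated wells divided by growth signal over untreated wells; some hits fall short of that in this replicate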
PGC1a acetyl inh: modulators of PGC1a acetylation. 350,000 tested, 0.17% active. AID 651687. U2OS PGC1a acetylation, AlphaScreen anti-acetyl-lysine; with virally co-expressed GCN5 acetyltransferase. inhibition, % at 15.6 µM;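 active = every replicate shows inhibition of at least 40%; inconclusive = mean inhibition at least 40% but some replicate below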
MITF TRPM1 HTS: increases MITF-driven TRPM1 promoter luciferase signal; SK-MEL-5 TRPM1-promoter luciferase, 24 h; % of positive control, neutral wells = 0; activation, % at 12.5 µM; 300,000 tested, 0.75% active;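 active = mean activation of at least 80% with every replicate also reaching 80%; inconclusive = mean reaches 80% but some replicate falls short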
Large screens that a line does not name were inactive.

N/C(=N\OC(=O)COc1ccc(Br)cc1Cl)c1cccnc1	MITF TRPM1 HTS 110.9 (no result: miR122 inh, UUG fidelity, PGC1a acetyl inh)
N/C(=N\OC(=O)COc1ccc(Cl)cc1Br)c1cccnc1	MITF TRPM1 HTS inconclusive (no result: miR122 inh, UUG fidelity)
CCOCCOC(=O)C(C)Oc1ccc(Oc2ncc(Cl)cc2Cl)cc1 (stereo unspecified)	none
CCOCCOC(=O)C(C)Oc1ccc(Oc2nc(Cl)ccc2Cl)cc1 (stereo unspecified)	PGC1a acetyl inh 88.5 (no result: miR122 inh, UUG fidelity)
O=c1oc(CCO)cc2ccc(-c3ccc4[nH]ccc4c3)cc12	Wnt bcat act 43.2, MITF TRPM1 HTS 116.6
C=C1C(=O)C=C2CN(C(=O)c3ccccc3)[C@@](Cc3ccc(F)cc3)(C(=O)OC)[C@@H]12	TRPM1 prom inh 99.3 (no result: miR122 inh, Wnt bcat act, PGC1a acetyl inh)
Cc1ccc(C(=O)NCCCc2ccccc2)c(Cl)c1	MITF TRPM1 HTS 100.6 (no result: PGC1a acetyl inh)
COc1ccccc1C(=O)Nc1ccc(Br)cc1C	Wnt bcat act 37.2
Cc1ccc(C(=O)NCCCc2ccccc2)c(C)c1	none (no result: UUG fidelity)
Cc1ccc(NC(=O)Nc2cccs2)c(Cl)c1	Wnt bcat act 55.3 (no result: UUG fidelity)
Cc1ccc(NC(=O)c2ccccc2Cl)c(Cl)c1	MITF TRPM1 HTS 86.3
O=C1/C(=C\c2ccc(Cl)c(Cl)c2)CN(C(=O)CCN2CCOCC2)C/C1=C/c1ccc(Cl)c(Cl)c1	TRPM1 prom inh 117.5, PGC1a acetyl inh inconclusive (no result: UUG fidelity, MITF TRPM1 HTS)
O=C1/C(=C\c2ccccc2)CN(C(=O)CCN2CCCCC2)C/C1=C/c1ccccc1	TRPM1 prom inh 109.4 (no result: miR122 inh, UUG fidelity, PGC1a acetyl inh)
CCN(CC)CCC(=O)N1C/C(=C/c2ccccc2)C(=O)/C(=C\c2ccccc2)C1	none (no result: miR122 inh, TRPM1 prom inh, UUG fidelity, PGC1a acetyl inh)
C[C@@H]1CCCCO[C@H](CN(C)C(=O)c2ccccc2)[C@H](C)CN([C@@H](C)CO)C(=O)c2cc(N(C)C)ccc2O1	none (no result: Wnt bcat act, TRPM1 prom inh, MITF TRPM1 HTS)
Fc1cccc(-c2nnn3c2nc(Cl)c2ccccc23)c1	Wnt bcat act 39.5
Clc1nc2c(-c3ccccc3)nnn2c2ccccc12	none (no result: UUG fidelity)
NNc1nc2c(-c3ccc(Cl)cc3)nnn2c2ccccc12	none
NNc1nc2c(-c3ccc(F)cc3)nnn2c2ccccc12	Wnt bcat act 39.0
Cc1noc(C)c1NC(=O)Nc1ccc2c(c1)C(=O)N(C)[C@@H]1CC[C@H](CC(=O)N(C)C)O[C@H]1CO2	none (no result: Wnt bcat act, TRPM1 prom inh, MITF TRPM1 HTS)
O=C(Cc1ccccc1)N1C[C@H]2[C@@H](c3ccccc31)[C@@H](CO)N2C(=O)C1CC1	none (no result: Wnt bcat act, TRPM1 prom inh, MITF TRPM1 HTS)
CN(C)CC1CCC/C(=C\c2ccc(OC(=O)/C=C/c3ccc(Cl)c(Cl)c3)cc2)C1=O (stereo unspecified)	none (no result: UUG fidelity)
COc1ccc(/C=C2/CCCC(CN(C)C)C2=O)cc1 (stereo unspecified)	TRPM1 prom inh 67.9 (no result: UUG fidelity, MITF TRPM1 HTS)
CCCC/C=C1/CCC(CN(C)C)C1=O (stereo unspecified)	TRPM1 prom inh 74.5 (no result: Wnt bcat act, UUG fidelity, MITF TRPM1 HTS)
COc1cccc(/C=C2\CCC(C3CCCC3)C2=O)c1 (stereo unspecified)	none (no result: PGC1a acetyl inh)
COc1cccc(/C=C2/CCC(CN(C)C)C2=O)c1 (stereo unspecified)	TRPM1 prom inh 97.5 (no result: miR122 inh, UUG fidelity, PGC1a acetyl inh)
CN(C)CC1CCC/C(=C/c2ccc(Cl)cc2)C1=O (stereo unspecified)	TRPM1 prom inh 81.1 (no result: UUG fidelity, MITF TRPM1 HTS)
CO[C@@H]1CN(C)C(=O)c2cc(NC(=O)C3CCCC3)ccc2OC[C@H](C)N(C(C)=O)C[C@@H]1C	none (no result: Wnt bcat act, TRPM1 prom inh, UUG fidelity, MITF TRPM1 HTS)
COc1ccc(CNC(=O)C[C@@H]2CC[C@@H](NS(=O)(=O)c3cccc(OC)c3)[C@H](CO)O2)cc1	none (no result: miR122 inh, Wnt bcat act, TRPM1 prom inh, MITF TRPM1 HTS)
Cc1ccc(NC(=O)Nc2ccc3c(c2)C(=O)N(C)[C@@H]2CC[C@H](CC(=O)O)O[C@H]2CO3)cc1	none (no result: Wnt bcat act, TRPM1 prom inh, MITF TRPM1 HTS)
C[C@H](CO)N1C[C@H](C)[C@H](CN(C)S(=O)(=O)c2ccc(Cl)cc2)Oc2c(NC(=O)C3CC3)cccc2C1=O	none (no result: Wnt bcat act, TRPM1 prom inh, MITF TRPM1 HTS)
CC(C)NC(=O)N(C)C[C@@H]1Oc2cc(-c3ccncc3)ccc2S(=O)(=O)N([C@@H](C)CO)C[C@H]1C	none (no result: Wnt bcat act, TRPM1 prom inh, MITF TRPM1 HTS)
CCN1CCN(Cc2ccc(NC(=O)c3ccc(C)c(NC(=O)c4cncc(-c5cccs5)c4)c3)cc2C(F)(F)F)CC1	TRPM1 prom inh 96.7, PGC1a acetyl inh 68.7 (no result: Wnt bcat act)
Cc1noc(C)c1S(=O)(=O)Nc1ccc2c(c1)CC(=O)N([C@@H](C)CO)C[C@@H](C)[C@H](CN(C)CC1CCCCC1)O2	none (no result: Wnt bcat act, TRPM1 prom inh, MITF TRPM1 HTS)
O=S1(=O)c2ccc(Br)cc2N2CCC[C@@H]2CN1Cc1ccc(Cl)cc1	none (no result: PGC1a acetyl inh)
O=S1(=O)c2ccc(Br)cc2N2CCC[C@H]2CN1Cc1ccccc1	miR122 inh 140.0
Cc1c(CCOC(=O)CC23CC4CC(CC(C)(C4)C2)C3)sc[n+]1CC(=O)c1ccccc1	TRPM1 prom inh 84.4 (no result: miR122 inh, UUG fidelity, PGC1a acetyl inh)
COCC#Cc1cnc2c(c1)C(=O)N([C@@H](C)CO)C[C@@H](C)[C@H](CN(C)C(=O)c1ccc(F)cc1)O2	none (no result: Wnt bcat act, TRPM1 prom inh, MITF TRPM1 HTS)
O=C(CSc1nncs1)Nc1ccc2c(c1)OCCO2	none
O=C(CSc1nncs1)NC(=O)Nc1ccc2c(c1)OCCO2	Wnt bcat act 37.3 (no result: UUG fidelity)
CCOc1ccc(C(=O)N(CC(=O)Nc2cccc(C)c2C)CC2CCCO2)cc1OC (stereo unspecified)	Wnt bcat act 51.5 (no result: miR122 inh, UUG fidelity)
Cn1c2ccccc2c(=O)c2ccc(C#Cc3ccccn3)cc21	none (no result: miR122 inh, TRPM1 prom inh, UUG fidelity, PGC1a acetyl inh, MITF TRPM1 HTS)
Cn1c2ccccc2c(=O)c2cc(C#Cc3ccccn3)ccc21	MITF TRPM1 HTS 102.4
Nc1ccccc1C#CC(=O)c1ccccc1	TRPM1 prom inh 92.7 (no result: miR122 inh, PGC1a acetyl inh)
Nc1ccccc1C#Cc1ccc([N+](=O)[O-])cc1	none (no result: miR122 inh, UUG fidelity, PGC1a acetyl inh)
O=C(C#Cc1cccc([N+](=O)[O-])c1)c1ccccc1	TRPM1 prom inh 82.2 (no result: Wnt bcat act)
COc1ccc(/C=N/Nc2nc3ccccc3s2)cc1O	none (no result: miR122 inh, UUG fidelity, PGC1a acetyl inh)

Source: PubChem BioAssay (Broad Institute)
